Measurements taken from US10799478B2, “Treatment of androgen deprivation therapy associated symptoms” (priority 2014, dated 2020).

Tests used:
Orx rats = experiment: Orchidectomized Rat Assay; type: in vivo; details: treatment of 8 weeks in rat orchidectomized for 8 weeks
healthy volunteers = experiment: Treatment of healthy volunteers (12 weeks); type: in vivo, human
healthy human volunteers [1] = experiment: Phase Ib Study of Healthy Volunteers; type: in vivo; details: eugonadal healthy human volunteers
healthy human volunteers [2] = experiment: Phase Ia Study in Healthy Volunteers; type: in vivo
Sprague-Dawley rat = details: 150 mg/kg/day recovery group
Method: Vehicle controls (15 rats/sex in main study and 5 rats/sex in recovery study) are given daily oral gavage dose of 5% Vitamin E TPGS, 1% hydroxyethylcellulose, 0.05% Dow Corning Antifoam 1510-US in purified water. Fifteen males and 15 females are assigned to each treatment main study group. Five males and 5 females are assigned to the recovery study for the vehicle control and 150 mg/kg/day groups. […] All administrations are given in a 15 mL/kg volume.

[3] = 6 month treatment of dogs (Table 10); details: male, dog, in vivo

In the case of CC(C)OC(=O)N[C@H]1Cc2c(n(Cc3ccccn3)c3ccc(C#N)cc23)C1 (single isomer, unassigned) [Example 1], the “accrual of seminal vesicle weight” value (Orx rats) is reported as “no significant accrual”, the “lumbar vertebra cross-sectional area (LV-TA)” value (Orx rats) is reported as “trend towards increase” and the “lumbar vertebra trabecular bone mineral content (LV-TBMC)” value (Orx rats) is reported as “trend towards increase”. The “lumbar vertebra trabecular bone mineral density (LV-TBMD)” value (Orx rats) was “significant accrual”, the fat mass (healthy volunteers) was “decrease” and the lean muscle mass (healthy volunteers) was “increase”. For the same molecule, the “N-terminal propeptide of procollagen type 1 (P1NP), biomarker for bone anabolism” value (healthy human volunteers [1]) was “positive exposure-response relationship”, the serum testosterone levels (healthy human volunteers [1]; more pronounced in males) was “decrease” and the “calf muscle area by peripheral Computer Tomography at the gastrocnemius bundle” value (healthy human volunteers [2]; healthy human volunteers) was “increase”. The “whole body lean muscle mass by DEXA” value (healthy human volunteers [2]; healthy human volunteers) was “increase”, the “whole body lean muscle mass effect compared to 0 mg placebo, Dunnett's test (p<0.05)” value (healthy human volunteers [2]; males, 5 mg dose level) was “statistically significant” and the “effects on male reproductive tissues and LH and testosterone, reversibility” value (Sprague-Dawley rat) was “reversed by the end of the 12-week recovery period”. For the same molecule, the AUC(0-t) ([3]; 3 mg/kg/day) was 6490 ng·h/mL and the AUC(0-t) ([3]; 30 mg/kg/day) was 44400 ng·h/mL.
